Source: ChEMBL document CHEMBL4414622, “Synthesis, Purification, and Selective β2-AR Agonist and Bronchodilatory Effects of Catecholic Tetrahydroisoquinolines from Portulaca oleracea” (J Nat Prod, 2019)

The chains behind the UniProt entries cited, without tags or fusion partners.
UniProt P08588, whole entry: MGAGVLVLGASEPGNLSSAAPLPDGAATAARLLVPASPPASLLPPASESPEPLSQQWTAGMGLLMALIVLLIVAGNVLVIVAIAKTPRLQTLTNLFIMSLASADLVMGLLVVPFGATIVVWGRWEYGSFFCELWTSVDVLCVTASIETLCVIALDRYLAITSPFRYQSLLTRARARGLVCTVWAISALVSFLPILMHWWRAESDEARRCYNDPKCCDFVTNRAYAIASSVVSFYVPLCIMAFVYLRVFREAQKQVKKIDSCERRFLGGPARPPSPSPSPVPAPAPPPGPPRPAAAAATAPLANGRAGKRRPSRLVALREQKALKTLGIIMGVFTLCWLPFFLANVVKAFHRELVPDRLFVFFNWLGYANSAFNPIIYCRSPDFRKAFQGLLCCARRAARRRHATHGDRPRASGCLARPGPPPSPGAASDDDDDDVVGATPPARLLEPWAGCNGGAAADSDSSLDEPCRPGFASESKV

Target: Beta-1 adrenergic receptor (Homo sapiens, UniProt P08588)

- EC50: 290 nM
Structure (SMILES): CNC[C@H](O)c1ccc(O)c(O)c1 [EPINEPHRINE]
